Results from article PMC8318206 (ACS catalysis, 2020).

Sequences of proteins named here, by UniProt entry; tags and fusion partners are left off. A change or cut given only in a name is not applied to a line headed by its entry.
UniProt P00183: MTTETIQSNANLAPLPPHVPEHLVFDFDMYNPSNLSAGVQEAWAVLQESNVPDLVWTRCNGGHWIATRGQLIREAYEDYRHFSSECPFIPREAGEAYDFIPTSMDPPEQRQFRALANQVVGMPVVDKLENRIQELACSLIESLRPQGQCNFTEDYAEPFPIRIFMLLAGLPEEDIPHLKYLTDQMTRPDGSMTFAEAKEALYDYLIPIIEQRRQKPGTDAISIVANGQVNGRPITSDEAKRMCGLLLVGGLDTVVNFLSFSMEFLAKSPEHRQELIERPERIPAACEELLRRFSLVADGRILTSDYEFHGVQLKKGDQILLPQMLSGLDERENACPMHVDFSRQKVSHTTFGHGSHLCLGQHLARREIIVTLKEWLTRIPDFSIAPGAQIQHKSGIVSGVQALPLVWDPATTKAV

How the values were obtained:
[1] = H2O or buffer; cited from earlier work
P450cam = P450cam (Pseudomonas putida, UniProt P00183); test: Steady-state substrate binding titrations

In the case of d-(+)-camphor, the Solubility limit [1] is listed as 8 mM, the Kd (P450cam; 10 mM Tris•HCl (pH 7.4) only, with Pdx (2-fold molar excess)) is listed as 21 ± 2 µM and the Kd (P450cam; 10 mM Tris•HCl (pH 7.4) only, without Pdx) is listed as 23 ± 2 µM. The Kd (P450cam; 10 mM Tris•HCl (pH 7.4), 15 mM KCl, with Pdx (2-fold molar excess)) was 9.8 ± 0.8 µM, the Kd (P450cam; 10 mM Tris•HCl (pH 7.4), 15 mM KCl, without Pdx) was 9 ± 0.3 µM and the Kd (P450cam; 20 mM potassium MOPS (pH 7.4), 200 mM KCl, absence of Pdx, 23 °C) was ~1 µM and 1 µM. The Kd (P450cam; 20 mM potassium MOPS (pH 7.4), 200 mM KCl, absence of Pdx, 23 °C, listed as Camphor) was 1.1 µM and the Kd (P450cam; 200 mM KCl, in the presence of Pdx) was 0.95 ± 0.12 µM.

Where “and” joins values, the source holds several entries; their conditions need not be identical. Identical values can stand only once.
